Laboratory results taken from patent US20130197059A1, “INTEGRIN ANTAGONIST CONJUGATES FOR TARGETED DELIVERY TO CELLS EXPRESSING LFA-1” (Hoffmann-La Roche Inc., priority 2012, published 2013).
Like-named read-outs stand apart in the source and are kept apart here.

Chains of the proteins cited; added tags and fusions are not shown. Residues count along the entry.
UniProt P05107, 23-700 limits assumed: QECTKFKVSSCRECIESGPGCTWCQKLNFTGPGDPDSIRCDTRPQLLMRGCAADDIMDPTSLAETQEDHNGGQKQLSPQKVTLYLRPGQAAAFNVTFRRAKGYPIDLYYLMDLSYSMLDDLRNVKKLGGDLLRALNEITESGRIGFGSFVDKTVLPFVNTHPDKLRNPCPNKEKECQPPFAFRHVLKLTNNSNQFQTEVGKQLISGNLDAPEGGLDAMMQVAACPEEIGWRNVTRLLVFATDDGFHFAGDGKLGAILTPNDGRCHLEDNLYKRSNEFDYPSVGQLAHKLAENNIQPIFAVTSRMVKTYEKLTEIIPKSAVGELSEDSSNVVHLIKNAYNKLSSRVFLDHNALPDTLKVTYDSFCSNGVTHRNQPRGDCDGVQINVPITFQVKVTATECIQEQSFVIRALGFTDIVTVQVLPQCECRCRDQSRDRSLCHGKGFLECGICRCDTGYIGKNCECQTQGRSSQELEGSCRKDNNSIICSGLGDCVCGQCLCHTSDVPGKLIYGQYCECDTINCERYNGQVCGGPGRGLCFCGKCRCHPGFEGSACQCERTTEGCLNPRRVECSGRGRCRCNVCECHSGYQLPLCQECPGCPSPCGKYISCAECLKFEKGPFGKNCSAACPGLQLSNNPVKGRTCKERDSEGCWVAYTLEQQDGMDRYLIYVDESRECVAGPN
UniProt P20701, 26-1090 limits assumed: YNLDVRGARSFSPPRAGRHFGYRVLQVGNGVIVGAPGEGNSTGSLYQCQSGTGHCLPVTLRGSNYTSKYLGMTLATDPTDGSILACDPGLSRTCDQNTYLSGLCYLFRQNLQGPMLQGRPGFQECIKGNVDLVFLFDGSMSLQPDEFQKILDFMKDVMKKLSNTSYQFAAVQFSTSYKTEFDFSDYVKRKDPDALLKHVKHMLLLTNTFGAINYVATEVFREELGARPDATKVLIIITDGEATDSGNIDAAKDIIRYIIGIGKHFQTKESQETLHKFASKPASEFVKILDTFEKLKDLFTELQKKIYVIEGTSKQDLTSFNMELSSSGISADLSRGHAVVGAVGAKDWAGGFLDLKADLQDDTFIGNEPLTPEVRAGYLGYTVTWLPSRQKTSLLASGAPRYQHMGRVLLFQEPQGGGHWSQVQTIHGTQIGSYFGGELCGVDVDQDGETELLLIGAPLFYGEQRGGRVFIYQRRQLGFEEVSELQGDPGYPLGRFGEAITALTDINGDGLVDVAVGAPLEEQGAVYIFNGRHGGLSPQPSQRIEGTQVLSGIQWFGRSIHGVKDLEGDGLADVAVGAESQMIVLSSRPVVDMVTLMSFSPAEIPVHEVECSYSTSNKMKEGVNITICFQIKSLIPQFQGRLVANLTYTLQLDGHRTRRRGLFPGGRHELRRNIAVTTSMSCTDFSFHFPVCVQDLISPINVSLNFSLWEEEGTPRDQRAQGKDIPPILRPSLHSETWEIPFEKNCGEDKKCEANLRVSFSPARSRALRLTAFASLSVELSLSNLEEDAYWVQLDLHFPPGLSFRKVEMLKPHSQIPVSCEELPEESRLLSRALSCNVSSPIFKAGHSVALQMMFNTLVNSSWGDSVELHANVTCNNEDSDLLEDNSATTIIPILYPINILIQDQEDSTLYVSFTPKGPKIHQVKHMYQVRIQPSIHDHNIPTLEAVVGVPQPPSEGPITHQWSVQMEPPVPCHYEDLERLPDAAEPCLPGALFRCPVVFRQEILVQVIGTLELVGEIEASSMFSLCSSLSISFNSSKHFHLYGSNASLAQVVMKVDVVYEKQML

Columns and labels:
sLFA-1/ICAM-1 = sLFA-1/ICAM-1 (Homo sapiens, UniProt P05107+P20701); assay: sLFA-1/ICAM-1 ELISA (LFA1 Adhesion Assay); settings: read-out: LFA1 Adhesion Assay (IC50 nM); Table 5
Jurkat Cells/VCAM-1 = Jurkat Cells/VCAM-1 Adhesion Assay; type: cell-based
[1] = read-out: Jurkat Cells/VCAM-1 Adhesion Assay (IC50 nM), Table 5

IC50 (sLFA-1/ICAM-1)	IC50 (Jurkat Cells/VCAM-1; read-out: Jurkat Cells/VCAM-1 Adhesion Assay, Table 4)	Compound	IC50 (Jurkat Cells/VCAM-1; [1])
> 10000 nM	> 200 nM	O=C(CCN1C(=O)CC(SCCC(=O)Nc2ccc(-c3c4ccc(=O)cc-4oc4cc(O)ccc34)c(C(=O)O)c2)C1=O)NCCOCCOCCOCCOCCOCCOCCOCCOCCC(=O)NCc1ccccc1 (stereo not shown)	> 200 nM
134 nM		Cc1nc(NCCCc2cccc(O)c2)nc(C)c1C(=O)N[C@@H](CNC(=O)CCOCCOCCOCCOCCNC(=O)CCN1C(=O)C=CC1=O)C(=O)O	
502 nM		Cc1nc(NCCCc2cccc(O)c2)nc(C)c1C(=O)N[C@@H](CNC(=O)CCOCCOCCOCCOCCOCCOCCOCCOCCOCCOCCOCCOCCNC(=O)CCN1C(=O)C=CC1=O)C(=O)O	

Compound	IC50 (sLFA-1/ICAM-1)	IC50 (Jurkat Cells/VCAM-1; read-out: Jurkat Cells/VCAM-1 Adhesion Assay, Table 4)	IC50 (Jurkat Cells/VCAM-1; [1])
Cc1nc(NCCCc2cccc(O)c2)nc(C)c1C(=O)N[C@@H](CNC(=O)CCOCCOCCOCCOCCOCCOCCOCCOCCNC(=O)CCN1C(=O)CC(SCCC(=O)Nc2ccc(-c3c4ccc(=O)cc-4oc4cc(O)ccc34)c(C(=O)O)c2)C1=O)C(=O)O (stereo partly shown)	160 nM		160 nM
